ChEMBL document CHEMBL1148420, “Identification and synthesis of [1,2,4]triazolo[3,4-a]phthalazine derivatives as high-affinity ligands to the alpha 2 delta-1 subunit of voltage gated calcium channel” (Bioorg Med Chem Lett, 2004)

By UniProt entry, the sequences of proteins in these tests, tags left out. Residues count along the entry.
UniProt P54289, 957-1103 limits assumed: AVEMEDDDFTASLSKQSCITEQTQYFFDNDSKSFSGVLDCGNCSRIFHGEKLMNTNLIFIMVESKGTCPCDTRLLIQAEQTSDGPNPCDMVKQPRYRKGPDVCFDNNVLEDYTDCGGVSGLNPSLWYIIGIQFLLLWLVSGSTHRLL
UniProt P54289, 25-956 limits assumed: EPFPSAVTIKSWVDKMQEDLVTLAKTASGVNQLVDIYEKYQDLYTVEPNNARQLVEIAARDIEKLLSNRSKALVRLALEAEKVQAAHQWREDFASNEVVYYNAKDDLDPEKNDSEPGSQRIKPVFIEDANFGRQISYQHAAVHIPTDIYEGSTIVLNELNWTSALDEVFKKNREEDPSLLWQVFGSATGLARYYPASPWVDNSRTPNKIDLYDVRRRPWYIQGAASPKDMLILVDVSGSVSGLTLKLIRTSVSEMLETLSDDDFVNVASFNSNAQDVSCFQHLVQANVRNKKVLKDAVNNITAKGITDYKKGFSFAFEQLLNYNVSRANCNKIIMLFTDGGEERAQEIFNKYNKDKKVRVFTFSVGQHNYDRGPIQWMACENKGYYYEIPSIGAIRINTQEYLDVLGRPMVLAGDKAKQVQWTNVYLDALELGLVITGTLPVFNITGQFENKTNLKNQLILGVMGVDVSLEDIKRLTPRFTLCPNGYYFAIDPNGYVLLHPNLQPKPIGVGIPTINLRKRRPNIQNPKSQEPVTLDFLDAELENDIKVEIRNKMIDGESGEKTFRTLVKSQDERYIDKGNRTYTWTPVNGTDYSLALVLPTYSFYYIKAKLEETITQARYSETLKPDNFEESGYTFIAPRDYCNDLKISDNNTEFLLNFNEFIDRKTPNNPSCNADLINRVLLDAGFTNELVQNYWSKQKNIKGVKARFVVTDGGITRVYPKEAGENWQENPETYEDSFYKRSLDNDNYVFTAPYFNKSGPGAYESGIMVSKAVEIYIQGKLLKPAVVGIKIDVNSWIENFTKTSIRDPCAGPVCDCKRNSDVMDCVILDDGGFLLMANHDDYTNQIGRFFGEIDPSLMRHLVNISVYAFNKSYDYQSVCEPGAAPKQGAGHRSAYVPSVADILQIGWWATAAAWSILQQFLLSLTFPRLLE

Target: Voltage-dependent calcium channel subunit alpha-2/delta-1 (Homo sapiens, UniProt P54289)
Assay: Binding affinity against alpha-2 delta-1 subunit of voltage gated subunit of Ca+2 channel in human
Method in brief: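 [3H]gabapentin displacement binding on A710 membranes (HEK 293 cells stably transfected with human α1B, β3a and α2δ-1b subunits), following a literature method.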

IC50: 3.16 µM
SMILES: COc1ccccc1CCNCc1cccc(COc2nn3c(C(F)(F)F)nnc3c3ccccc23)n1
